# Ab-95 light chain CDR variants: yeast mating affinities

Reference: Engelhart et al. 2022, doi:10.1038/s41597-022-01779-4. File: FLAb, binding data.

Antigen: PDVDLGDISGINAS, a 14-residue peptide of the SARS-CoV-2 spike HR2 region.

Each scFv is VH, a (GGGGS)3 linker, VL, as in the parent Ab-95, and differs from it in the CDRs of the light chain only.
VH: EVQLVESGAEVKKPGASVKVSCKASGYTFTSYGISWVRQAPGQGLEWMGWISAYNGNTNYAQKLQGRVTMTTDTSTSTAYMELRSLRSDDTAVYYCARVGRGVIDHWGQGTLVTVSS
VL: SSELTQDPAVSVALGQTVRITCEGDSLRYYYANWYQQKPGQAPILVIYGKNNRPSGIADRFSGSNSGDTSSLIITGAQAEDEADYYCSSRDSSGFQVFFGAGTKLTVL

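The parent was found by panning a naive human phage display library on the peptide. Variants in AAYL52 differ from the parent at up to three CDR positions; double and triple changes were sampled at random. The assay is AlphaSeq: two haploid yeast populations carry antibody and antigen on their surface. Pairs that bind mate more often; barcode pairs of the diploids are counted by sequencing. Scores were corrected for input abundance and mapped to Kd with protein pairs of known affinity run in the same pool. There are three technical replicates.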

Variants are written as CDR1, CDR2 and CDR3 of the light chain (limits as in the source). Parent: EGDSLRYYYAN, GKNNRPS, SSRDSSGFQVF.
Every variant below is changed at Q96 of the VL (sequential numbering).
Affinities are written as log10 Kd with Kd in nM; a lower number is a better binder.
"nd" marks a missing value. The strain was present, yet no cells mated with the target were sequenced in that replicate, which points to weak or no binding.
Three control strains display no target. For library AAYL52, 28% of the pairings with them gave a signal, with a median of 3.91 and one signal in twenty below 2.90, so weak values seen in few replicates may be background.
In this assay the parent's reference entry averaged 2.31; its copy inside this library read 2.25.

With EGDSTRYYYAN | GKNNRPS | SSRDSSEFVVF the result was nd, nd, nd. With EGDSLRYNYAN | GKNYRPS | SSRDSSGFWVF the result was 2.22, 1.94, 1.44. With EGDSLRYYYAN | GKNNRKS | SSRNSSGFHVF the result was 3.74, nd, 3.13. Variant EGDSVKYYYAN | GKNNRPS | SSRDSSGFAVF showed 3.60, nd, nd. For EGDSLRYYFAN | GKGNRPS | SSRDSSGFHVF, the assay gave 2.51, 2.79, 1.85.

For EGDSLRFYYTN | GKNNRPS | SSRDSSGFYVF, the assay gave nd, 3.12, 2.89. Variant PGDSLRYYYAN | GKNNRPS | SSRDSSGFNVF showed nd, nd, nd. Variant EGDSLRYYYAN | GKNWRPS | SSRDSSGFHVS gave 3.63, 2.72, nd. Variant EGDSLRYYYAN | GKNNRPS | WSRYSSGFEVF gave nd, 3.93, nd. Variant EGDSLRYYYAN | GKNNRPC | SSRDSSGFLVH showed nd, 4.29, nd.

For LGDSLRYYYAN | GKNNRPS | SSRDSSGMPVF, the assay gave 3.21, 3.51, 3.09. Variant EGDSLRYYEAN | GKNNRPS | SSRDSVGFGVF gave 2.12, 2.82, 2.25. Variant EGYSLRYYYAN | GKNNRPS | SSLDSSGFWVF gave 5.09, nd, nd. With EGDSLRYYYAN | GKNNRPS | SSTDSSGFLVF the result was 3.87, 5.52, nd. Variant EGDSLRYYYAN | GKNNRPS | SSRDSSSFTVF gave 3.62, 5.63, 2.91.

Variant EGDSLRYYYTN | GKNNRPS | SSRDSSGFRVF gave 2.93, 2.64, 3.61. With EGDSLRYYYAN | GKNNAPS | ISRDSSGFDVF the result was 3.94, nd, nd. Variant EGESLRDYYAN | GKNNRPS | SSRDSSGFMVF gave 1.88, 1.93, 1.44. Variant EFDSLRYYYAN | GTNNRPS | SSRDSSGFNVF showed 3.27, 3.41, 3.32. With EGDSLRYPYAN | GKNNRPS | SSRDSSGFYVF the result was 2.17, 2.53, 2.06.

Variant WGDSLRYYYAN | GKNNRPP | SSRDSSGFDVF gave 3.12, 4.05, nd. Variant EGWSLRYYYAN | GKNNRPS | SSRDSSGFNRF showed nd, nd, nd. With EQDSLRIYYAN | GKNNRPS | SSRDSSGFAVF the result was 4.50, 4.53, 4.56. With EGRSLRYYYAN | GKNQRPS | SSRDSSGFEVF the result was 2.93, 3.05, 2.80. Variant EGDSLRYYYAN | GKNNRPS | SSRDSSGFWVF showed 2.19, 2.32, 1.46.

For EGDWLRYYYAD | GKNNRPS | SSRDSSGFHVF, the assay gave 3.19, nd, nd. Variant EGFDLRYYYAN | GKNNRPS | SSRDSSGFSVF showed 3.63, 3.07, 2.85. For EGDSLRYYYAN | GKNNRPS | SSRDLSGFIVF, the assay gave nd, nd, nd. With ECDSLRYYYAN | GKNNRPS | SSRDSSLFVVF the result was nd, 3.32, nd. Variant EGDSLRYYYAN | GKNNRPS | SSADSSGFVVM showed 2.27, 3.19, 2.27.

Picked from the list: the 5 lowest averages where every replicate gave a value.

| CDR-L1 | CDR-L2 | CDR-L3 | replicates, log10 nM |
|---|---|---|---|
| EGESLRDYYAN | GKNNRPS | SSRDSSGFMVF | 1.88, 1.93, 1.44 |
| EGDSLRYNYAN | GKNYRPS | SSRDSSGFWVF | 2.22, 1.94, 1.44 |
| EGDSLRYYYAN | GKNNRPS | SSRDSSGFWVF | 2.19, 2.32, 1.46 |
| EGDSLRYPYAN | GKNNRPS | SSRDSSGFYVF | 2.17, 2.53, 2.06 |
| EGDSLRYYFAN | GKGNRPS | SSRDSSGFHVF | 2.51, 2.79, 1.85 |